Assay results reported in ChEMBL document CHEMBL5506072, “Discovery of Potent and Selective Covalent Inhibitors of HER2WT and HER2YVMA” (J Med Chem, 2024).

Test system: Sf21
Assay: Irreversible covalent inhibition of C-terminal His-tagged HER2 YVMA mutant (703 to 1029 residues)(unknown origin) expressed in Sf21 cells assessed as Kinact/Ki in presence of ATP
Conditions: Homo sapiens

C=CC(=O)N1CCC[C@@H](n2nc(-c3ccc(Oc4ccccc4)cc3)c3c(N)ncnc32)C1 [IBRUTINIB] was tested, and the K was 7 10^4/M/s.
